These are literature values, as cited in patent US10434213B2, “Controlled delivery system” (Wake Forest University Health Sciences, priority 2010, dated 2019).

The conditions of this data set: Geiger et al. 2003.

For the substance “Recombinant human BMP-2: Recombinant human bone morphogenetic protein 2, growth factor”, the Isoelectric point is on record as 9.
